The results in this text go back to ChEMBL document CHEMBL1121970, “Potential radiosensitizing agents. 5. 2-Substituted benzimidazole derivatives” (1982).

For test [1], the system named is CHO. Description: Radiosensitizing activity against chinese hamster cells was determined in the presence of the sensitizer under nitrogen at a concentration of 0.5 mM. To be noted: Cricetulus griseus.
The nature of test [2]: Sensitizer enhancement ratio(SER) was determined. The class given is functional.

On to `O=[N+]([O-])c1ccc2[nH]c([N+](=O)[O-])nc2c1`, for which the Survivals in test [1] stood at 4.4%. Also, in test [2], the SER came to 2.1.
